Only a part is listed here, and it is no random draw. Records with an inconclusive call do not appear. Calls of active or inactive are those of the source. The call rests on the fitted dose curve.
Assay: Nuclear factor erythroid 2-related factor 2/antioxidant responsive element (Nrf2/ARE) small molecule agonists: luciferase reporter gene qHTS assay in human keratinocytes (AID 1919969); further: nearly all actives have a fitted effect of over 35% in size
Conditions: KeratinoSens HaCaT ARE-luciferase, luminescence, 24 h; series mostly up to 92.4 µM; activity, positive = activation: at the top concentration
From the text: National Center for Advancing Translational Sciences [NCATS]
Division of Preclinical Innovation [DPI]
U.S. Environmental Protection Agency [EPA]
National Institutes of Environmental Health Sciences [NIEHS]
National Toxicology Program [NTP]
U.S. Food and Drug Administration [FDA]
Oxidative stress has been implicated in the pathogenesis of a variety of diseases ranging from cancer to neurodegeneration. The antioxidant response element (ARE) signaling pathway plays an important role in the amelioration of oxidative stress. The KeratinoSens (Givaudan, Switzerland) is an in vitro test method which quantifies luciferase induction as a measure of activation of Keap1-Nrf2-antioxidationt/electrophile response element (ARE) dependant pathway in HaCaT human keratinocytes stably transfected with a selectable plasmid. The KeratinoSens assay is a cell-based assay with a reporter cell line to detect potential skin sensitizers by their ability to induce the Nrf2/ARE-response. The activation of the report gene under culture conditions can be detected by ONE-Glo Luciferase Assay System (Promega, Madison, WI). This cell line has been used to screen the Tox21 10K compound library to identify agonists that induce oxidative stress. The cytotoxicity of the Tox21 compound library against the KS-ARE cell line was tested in parallel by measuring the cell viability using CellTiter- Fluor assay system (Promega, Madison, WI) in the same wells.
HaCaT derived cell line KeratinoSens were dispensed at 1,500 cells/5uL/well in 1536-well white wall/solid bottom plates using a Multidrop Combi (ThermoFisher Scientific, Waltham, MA) dispenser. After the assay plates were incubated at 37 C/5% CO2 for 5 h, 23 nL of compounds dissolved in DMSO, positive controls or DMSO only was transferred to the assay plate by a pintool workstation (Kalypsys, San Diego, CA). The plates were incubated at 37 C/5% CO2 for 23 h, followed by addition of 1uL/well of CellTiter-Fluor reagent into the assay plates using a Flying Reagent Dispenser (Aurora Discovery, San Diego, CA) for cell viability readout that measures cytotoxicity. After 1 h incubation at 37 C/5% CO2 the fluorescence intensity was measured using a ViewLux (PerkinElmer, Shelton, CT) plate reader. Then 4uL/well of One-Glo were added using a Flying Reagent Dispenser. After the plates were incubated at room temperature for 30 min, the luminescence intensity in the assay plates was measured using ViewLux plate reader.
On the % scale 0 is the no-effect control and ±100 the full control effect; potency means the concentration at half of the fitted maximal effect.

SMILES	activity, positive = activation	Potency
N=C(N)N[N+](=O)[O-]	inactive: -0.199%	–
Nc1cc([N+](=O)[O-])cc([N+](=O)[O-])c1O	inactive: 5.69%	–
CCOP(=O)(CC)Oc1ccc([N+](=O)[O-])cc1 (centres undefined)	inactive: 0.727% [at 42.5 µM]	–
COP(C)(=O)OC	–	inactive
C/C1=C2N=C(/C=C3N=C(/C(C)=C4\[N-][C@@](C)([C@@H]5N=C1[C@](C)(CCC(=O)NC[C@@H](C)OP(=O)([O-])O[C@H]1[C@@H](O)[C@@H](n6cnc7cc(C)c(C)cc76)O[C@@H]1CO)[C@H]5CC(N)=O)[C@@](C)(CC(N)=O)[C@@H]4CCC(N)=O)[C@@](C)(CC(N)=O)[C@@H]\3CCC(N)=O)C(C)(C)[C@@H]/2CCC(N)=O.[C-]#N.[Co+3]	inactive: -8.51% [at 42.5 µM]	–
COc1ccc([N+](=O)[O-])cc1[N+](=O)[O-]	inactive: 0.718%	–
Cc1c([N+](=O)[O-])cccc1[N+](=O)[O-]	–	inactive
CCN(CC)CCCl	–	active: 55.3 µM
Cc1ccc([N+](=O)[O-])cc1[N+](=O)[O-]	–	inactive
O=[N+]([O-])[O-].[NH4+]	–	inactive
CC(C)N(CCO)C(C)C	inactive: -8.45%	–
[NH4+].[O-][Cl+3]([O-])([O-])[O-]	–	inactive
O=[N+]([O-])c1cccc([N+](=O)[O-])c1	inactive: 10.2%	–
OCCSCCO	–	inactive
N#CBr	inactive: 0.207%	–
CCOP(=O)(CC)OCC	inactive: 1.51%	–
Cc1cccc([N+](=O)[O-])c1[N+](=O)[O-]	–	active: 8.15 µM
O=[N+]([O-])OCC(CO[N+](=O)[O-])(CO[N+](=O)[O-])CO[N+](=O)[O-]	inactive: 6.1%	–
CP(=O)(O)OCCC[Si](O)(O)O	inactive: -8.43%	–

Source: PubChem BioAssay (Tox21)
